According to publication PMC9287160, “Structural insights into the function-modulating effects of nanobody binding to the integrin receptor αMβ2” (The Journal of Biological Chemistry, 2022):

Experiments:
[1] = biological target: T1, human integrin αMβ2 headpiece fragment (Homo sapiens); ITGAM isoform 2 (as in …); experiment: BLI; competition: biotinylated avi-tagged hCD11bNb1 on streptavidin sensors; 20 nM αMβ2 HP alone or preincubated with 10-fold molar excess of hCD11bNb1 WT or mutants; 30 °C; running buffer with 1 mg/ml BSA; details: both partners purified
[2] = biological target: T1, human integrin αMβ2 headpiece fragment; experiment: BLI; His-tagged hCD11bNb1 on anti-penta-HIS sensors; αMβ2 HP 6.25-50 nM or αI domain 0.8-25 nM in solution; 30 °C; 20 mM Hepes pH 7.5, 150 mM NaCl, 5 mM MgCl2, 1 mM CaCl2; 1:1 model; triplicates; apparent; details: both partners purified

B1: nanobody hCD11bNb1 (His-tagged) (VHH)
VHH: QVQLVETGGGLVQAGGSLRLSCAASGNINSFNAMGWFRQAPGKQRELVAAITFGGRTNYADSVKGRFTISRDNTKGSVYLQMNSLKPEDTAVYYCAASENNLLTGVWHYWGRGTQVTVSS
notes: nanobody selected by phage display from a llama immunised with the αMβ2 HP; they are in PDB 7NP9 (nanobody alone) and PDB 7P2D (complex); Captured through its His tag on anti-penta-HIS BLI sensors. pET-22b(+) usually adds a C-terminal His6 (surmise); also called parental hCD11bNb1; WT hCD11bNb1
For B1, the “percent of the signal of αMβ2 HP on immobilised hCD11bNb1 left with a 10-fold molar excess” value [1] was about 22% and the Kd [2] was 1 to 6 nM.
